Earlier results as cited in patent publication US6420428B1, “Treatment and prevention of hepatic disorders” (The Regents of the University of California, priority 1996, dated 2002).

Details: BHT in combination with retinyl acetate; cited from earlier work

## Cc1cc(C(C)(C)C)c(O)c(C(C)(C)C)c1 [BHT, 2,6-Bis(1,1-dimethylethyl)-4-methylphenol]
  hepatic fibrosis: potentiated hepatic fibrosis
